Target: μ-opioid receptor (MOR) (Homo sapiens, UniProt P35372)
Assay: [35S]GTPγS binding assay, MOR agonist activity
Format: biochemical
Conditions: mean ± sem
Procedure: Protein concentration was detected using BCA protein concentration assay kit: 10 μl of protein standard was prepared into a final concentration of 0.5 mg/ml. 0, 1, 2, 4, 8, 12, 16, or 20 μl of BSA standard protein was taken and added together with the sample to be tested to a 96-well plate, and supplemented to 20 μl with the solution for diluting the standard. 200 μl of BCA working solution was added to each well and placed at 37° C. for 30 min. The absorbance at A562 wavelength was measured with a microplate reader. The protein concentration was calculated based on the standard curve.
The prepared membrane receptor was diluted to the required concentration with the reaction buffer (R.B), and the samples were added as shown in Table 2 (unit: μl).
The reaction tube was incubated in a 27° C. water bath for 1 hour, and the mixture was filtered through a glass fiber membrane under reduced pressure and liquid scintillation counting was performed. The following equation was used to perform calculation:
[^35S] GTPγS binding rate=100×(cpmsample−cpmnon-specific)/(cpmbasal−cpmnon-specific)

By UniProt entry, the sequences of proteins in these tests, tags left out.
UniProt P35372, whole entry: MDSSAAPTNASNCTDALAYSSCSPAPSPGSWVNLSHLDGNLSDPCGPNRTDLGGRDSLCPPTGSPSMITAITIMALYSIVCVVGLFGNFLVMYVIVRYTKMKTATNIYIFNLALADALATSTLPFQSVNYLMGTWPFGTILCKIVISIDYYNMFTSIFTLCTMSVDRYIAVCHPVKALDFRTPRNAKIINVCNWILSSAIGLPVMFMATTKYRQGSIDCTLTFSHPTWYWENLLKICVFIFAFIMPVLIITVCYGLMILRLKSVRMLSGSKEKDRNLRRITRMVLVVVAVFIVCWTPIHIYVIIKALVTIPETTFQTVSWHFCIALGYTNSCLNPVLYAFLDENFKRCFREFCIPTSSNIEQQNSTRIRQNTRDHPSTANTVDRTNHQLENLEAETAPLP

**Q.** With `C[C@@H](NC(=O)[C@@H](N)Cc1ccc(O)cc1)C(=O)N[C@@H](Cc1ccccc1)C(=O)NCC(=O)N[C@@H](Cc1ccc(O)cc1)C(=O)N1CCC[C@H]1C(=O)N[C@@H](CO)C(N)=O` [derorphin, reference compound] as the compound, how does the EC50 read?
**A.** 0.0613 ± 0.0106 µM
